Laboratory results as given in patent publication US20260116921A1, “PEPTIDE INHIBITORS OF INTERLEUKIN-23 RECEPTOR AND THEIR USE TO TREAT INFLAMMATORY DISEASES” (priority 2018, published 2026).

Key:
[1] = in vitro; conditions: cynomolgus monkey, tissue homogenate, pH 6.8
[2] = in vitro; conditions: both, SD, rat, plasma
[3] = in vitro; conditions: human, tissue homogenate, pH 6.8
[4] = target: T1, IL-23R (Homo sapiens, UniProt Q5VWK5); experiment: DB cells IL23R pSTAT3 cell assay (pStat3 HTRF); assay type: cell-based; conditions: Table E3, IL-23 0.5 nM, 30 minutes at 37° C.
T1 sequence (Q5VWK5 24-629): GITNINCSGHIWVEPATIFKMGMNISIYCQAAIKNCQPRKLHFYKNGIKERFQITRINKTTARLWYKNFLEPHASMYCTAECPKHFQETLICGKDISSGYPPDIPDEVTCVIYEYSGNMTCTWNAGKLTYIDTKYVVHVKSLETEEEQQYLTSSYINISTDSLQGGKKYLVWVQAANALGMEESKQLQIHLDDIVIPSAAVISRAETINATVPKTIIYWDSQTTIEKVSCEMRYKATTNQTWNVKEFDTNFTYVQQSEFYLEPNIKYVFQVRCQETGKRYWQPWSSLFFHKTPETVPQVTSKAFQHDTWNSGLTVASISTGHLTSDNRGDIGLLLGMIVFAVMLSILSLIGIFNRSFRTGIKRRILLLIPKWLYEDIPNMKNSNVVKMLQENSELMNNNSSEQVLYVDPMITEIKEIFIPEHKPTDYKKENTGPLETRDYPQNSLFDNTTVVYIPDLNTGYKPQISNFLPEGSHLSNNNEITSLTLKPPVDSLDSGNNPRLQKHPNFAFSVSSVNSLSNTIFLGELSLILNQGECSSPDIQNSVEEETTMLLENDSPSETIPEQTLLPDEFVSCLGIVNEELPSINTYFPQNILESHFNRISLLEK
Text: Human ELISA indicates the IL23-IL23R competitive binding assay described below, Rat ELISA indicates the rat IL-23R competitive binding ELISA assay described below, and pStat3HTRF indicates the DB cells IL-23R pSTAT3 cell assay described below. The peptides depicted in Table E1 are cyclized via a disulfide bridge formed between two Pen residues in these peptides. The peptides depicted in Table E2 are cyclized via a thioether bond between the indicated amino acid residues. Table E2 provides an illustrative structure depicting thioether cyclization, which is indicated in the table by the term “cyclo,” with the cyclic region bracketed immediately following the term “cyclo.” For certain peptides, the residue Abu is present where indicated, whereas in other embodiments, e.g., those related to the non-cyclized form, the Abu may be referred to as a hSer(Cl) or homoSer residue.
DB Cells IL23R pSTAT3 Cell Assay
IL-23 plays a central role in supporting and maintaining Th17 differentiation in vivo. […] Changes in phospho-STAT3 levels in the cell lysates were detected using the Cisbio HTRF pSTAT3 (Tyr705) Cellular Assay Kit (Cisbio #62AT3PEH), according to manufacturer's Two Plate Assay protocol.

[5] = Stability in simulated gastric fluid (SGF); assay type: in vitro ADME; conditions: porcine pepsin, pH=2, 37° C., 20 μM peptide
Method: SGF was prepared by adding 20 mg NaCl, 32 mg porcine pepsin (MP Biochemicals, catalog 02102599), and 70 μl HCl to 10 ml water (final pH=2). Aliquots of SGF (0.5 ml each) were pre-warmed at 37° C. To start the reaction, 1 μl of peptide stock solution (10 mM in DMSO) was added to 0.5 ml SGF and thoroughly mixed such that the final peptide concentration was 20 μM. The reactions were incubated at 37° C. with gentle shaking. At each time point (0, 15, 30, 60 min) 50 μl aliquots were removed and added to 200 ul acetonitrile containing 0.1% formic acid to quench the reaction.

[6] = test system: NK cells; experiment: NK cell based assay (IL-23/IL-18-induced IFNγ, Quantikine ELISA); conditions: human primary NK cells, IL-23 at EC50 to EC75 + IL-18 10 ng/mL, IFNγ after 20 to 24 hours
Method: killer (NK) cells, purified from human peripheral blood of healthy donors by negative selection (Miltenyi Biotech, Cat #130-092-657), were cultured in complete media (RPMI 1640 containing […], L-glutamine and penicillin-streptomycin) in the presence of IL-2 (RnD, Cat #202-IL-010/CF) at 25 ng/mL. After 7 days, cells were centrifuged, and resuspended in complete media at IE6 cells/mL. […] After 20 to 24 hours, IFNγ in the supernatant was quantified using Quantikine ELISA (RnD, Cat #DIF50).

[7] = simulated intestinal fluid, pancreatin, pH 6.8, 37° C.; § matrix is 100 fold dilution of standard SIF concentration
[8] = in vitro; conditions: simulated gi fluid, pH 6.8

SMILES	half-life [1] [h]	half-life [2] [h]	half-life [3] [h]	IC50 [4] [nM]	SGF t½ [5] [h]	IC50 [6] [nM]	SIF t½ [7] [h]	half-life [8] [h]
CC(=O)NCCCC[C@H](NC(=O)[C@](C)(CC(C)C)NC(=O)[C@H](Cc1ccc2ccccc2c1)NC(=O)[C@H](Cc1ccc(OCCN)cc1)NC(=O)[C@H]1NC(=O)[C@H](CCC(N)=O)NC(=O)[C@H](Cc2c[nH]c3c(C)cccc23)NC(=O)[C@H]([C@@H](C)O)NC(=O)[C@H](CC(N)=O)NC(=O)[C@@H](NC(C)=O)C(C)(C)SSC1(C)C)C(=O)N[C@@H](Cc1c[nH]cn1)C(=O)NCCC(N)=O [compound 214]	> 24	1	> 24	1 to 10	24	< 10	24	
CC(=O)NCCCC[C@H](NC(=O)[C@](C)(CCCCN)NC(=O)[C@H](Cc1ccc2ccccc2c1)NC(=O)[C@H](Cc1ccc(OCCN)cc1)NC(=O)[C@H]1NC(=O)[C@H](CCCCNC(=O)Cc2ccccc2)NC(=O)[C@H](Cc2c[nH]c3c(C)cccc23)NC(=O)[C@H]([C@@H](C)O)NC(=O)[C@H](CC(N)=O)NC(=O)[C@@H](NC(C)=O)C(C)(C)SSC1(C)C)C(=O)N[C@@H](CC(N)=O)C(=O)N[C@H](CC(C)C)C(N)=O [compound 318]								20
